Measurements as given in US10793576B2, “Compound used as Bruton's tyrosine kinase inhibitor and preparation method and application thereof” (Chengdu Brilliant Pharmaceutical Co., LTD., priority 2017, dated 2020).

Protein sequences, listed by entry. Tags and fused reporters are not part of them.
UniProt Q06187, whole entry: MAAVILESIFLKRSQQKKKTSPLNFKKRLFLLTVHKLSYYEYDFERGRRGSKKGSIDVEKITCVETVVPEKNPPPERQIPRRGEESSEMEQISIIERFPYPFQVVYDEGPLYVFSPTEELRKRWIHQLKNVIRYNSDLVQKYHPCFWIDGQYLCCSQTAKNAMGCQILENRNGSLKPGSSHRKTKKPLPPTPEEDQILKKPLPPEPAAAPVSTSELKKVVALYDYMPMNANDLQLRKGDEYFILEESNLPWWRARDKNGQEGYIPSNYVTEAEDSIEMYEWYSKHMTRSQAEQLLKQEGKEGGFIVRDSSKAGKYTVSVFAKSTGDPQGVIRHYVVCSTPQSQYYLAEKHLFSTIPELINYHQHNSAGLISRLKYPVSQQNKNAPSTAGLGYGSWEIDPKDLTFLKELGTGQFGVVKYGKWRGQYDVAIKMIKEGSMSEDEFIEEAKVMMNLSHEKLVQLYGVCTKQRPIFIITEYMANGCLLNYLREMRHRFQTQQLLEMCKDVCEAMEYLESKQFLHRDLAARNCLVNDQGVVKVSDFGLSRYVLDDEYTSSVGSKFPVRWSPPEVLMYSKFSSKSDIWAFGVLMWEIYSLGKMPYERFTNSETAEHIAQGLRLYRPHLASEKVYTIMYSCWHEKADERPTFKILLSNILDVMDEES

Tests used:
DOHH2 cells = assay: Cell proliferation inhibition in vitro, DOHH2 cells by CTG assay; conditions: read-out: Inhibitions of cell activities IC50 (nM) DOHH2, 72 hours
TMD8 cells = assay: Cell proliferation inhibition in vitro, TMD8 cells by CCK-8 method; conditions: read-out: Inhibitions of cell activities IC50 (nM) TMD8, 72 hours
OCI-LY10 cells = assay: Cell proliferation inhibition in vitro, OCI-ly10 cells by CCK-8 method; conditions: read-out: Inhibitions of cell activities IC50 (nM) OCI-LY10, 72 hours
BTK kinase = BTK kinase (Homo sapiens (Human), UniProt Q06187); assay: In vitro assay for the inhibition of BTK kinase activity (Mobility-Shift Assay); assay type: biochemical; conditions: read-out: BTK IC50

For C=CC(=O)N1C[C@H]2[C@@H]([C@H]1c1nc(-c3ccc(Oc4ccccc4)cc3)c3c(N)nccn13)C2(C)C, which IC50 (DOHH2 cells) is on record?
Its IC50 is 314 nM.

What about the IC50 (TMD8 cells) of the same compound?
Its IC50 is 7.4 nM.

And the IC50 (OCI-LY10 cells)?
The IC50 was 0.67 nM.

And the IC50 (BTK kinase)?
The IC50 was 14.3 nM.

CC#CC(=O)N1C[C@H]2[C@@H]([C@H]1c1nc(-c3ccc(Oc4ccccc4)cc3)c3c(N)nccn13)C2(C)C was tested. Which IC50 (DOHH2 cells) did it give?
Its IC50 is 218 nM.

And the IC50 (TMD8 cells)?
The IC50 was 6.9 nM.

What about the IC50 (OCI-LY10 cells) of the same compound?
The IC50 was 0.37 nM.

What about the IC50 (BTK kinase) of the same compound?
Its IC50 is 7.2 nM.
